Assay results as given in patent US20260235630A1 (EIKEN KAGAKU, published 2026).

The chains behind the UniProt entries cited, without tags or fusion partners. Residues count along the entry.
UniProt P69905, 2-142, chain 1 of 2: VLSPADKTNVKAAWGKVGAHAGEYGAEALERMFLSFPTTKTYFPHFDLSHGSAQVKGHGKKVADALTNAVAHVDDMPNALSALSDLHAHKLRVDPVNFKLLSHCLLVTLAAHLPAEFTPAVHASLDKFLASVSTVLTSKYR
Human hemoglobin, UniProt P68871, 2-147, chain 2 of 2: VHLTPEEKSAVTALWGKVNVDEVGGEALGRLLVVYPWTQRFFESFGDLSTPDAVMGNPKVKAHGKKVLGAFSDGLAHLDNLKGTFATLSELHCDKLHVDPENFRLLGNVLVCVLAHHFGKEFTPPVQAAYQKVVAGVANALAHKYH

Assays:
Human hemoglobin [1] = biological target: T1, Human hemoglobin (human, UniProt P69905 2-142; P68871 2-147); assay: Hb value by OC-Hemodia Auto III reagent against sample without Hpt; Hpt 0.25 Unit (2.325 pmol/mL); with stool
Method: (§1) The Hb values of these samples were measured using an Hb measurement reagent (OC-Hemodia® Auto III ‘Eiken’ available from EIKEN CHEMICAL CO., LTD.) and a fully automated fecal occult blood immunochemical analyzer (OC Sensor DIANA available from EIKEN CHEMICAL CO., LTD.). The measured values were used as the initial starting values.

Human hemoglobin [2] = biological target: T1, Human hemoglobin; assay: Hb value by OC-Hemodia Auto III reagent against sample without Hpt; Hpt 0.5 Unit (3.1 pmol/mL); no stool
Human hemoglobin [3] = biological target: T1, Human hemoglobin; assay: 59.4 µg/mL human Hb mixed with Hpt original solution at 0.500% (vol/vol); free Hb read with latex reagent No. 16 + No. 11
Human hemoglobin [4] = biological target: T1, Human hemoglobin; assay: Hb value by OC-Hemodia Auto III reagent against sample without Hpt; Hpt 0.125 Unit (0.775 pmol/mL); no stool
Human hemoglobin [5] = biological target: T1, Human hemoglobin; assay: Hb value by OC-Hemodia Auto III reagent against sample without Hpt; Hpt 0.25 Unit (1.55 pmol/mL); no stool
Human hemoglobin [6] = biological target: T1, Human hemoglobin; assay: Hb value by OC-Hemodia Auto III reagent against sample without Hpt; Hpt 1 Unit (9.3 pmol/mL); with stool
Method: as §1

Human hemoglobin [7] = biological target: T1, Human hemoglobin; assay: 59.4 µg/mL human Hb mixed with Hpt original solution at 0.125% (vol/vol); free Hb read with latex reagent No. 16 + No. 11
Human hemoglobin [8] = biological target: T1, Human hemoglobin; assay: Hb value by OC-Hemodia Auto III reagent against sample without Hpt; Hpt 0.5 Unit (4.65 pmol/mL); with stool
Method: as §1

Human hemoglobin [9] = biological target: T1, Human hemoglobin; assay: 59.4 µg/mL human Hb mixed with Hpt original solution at 0.250% (vol/vol); free Hb read with latex reagent No. 16 + No. 11
Human hemoglobin [10] = biological target: T1, Human hemoglobin; assay: 59.4 µg/mL human Hb mixed with Hpt original solution at 1.000% (vol/vol); free Hb read with latex reagent No. 16 + No. 11
Human hemoglobin [11] = biological target: T1, Human hemoglobin; assay: Hb value by OC-Hemodia Auto III reagent against sample without Hpt; Hpt 1 Unit (6.2 pmol/mL); no stool
Human hemoglobin [12] = biological target: T1, Human hemoglobin; assay: Hb value by OC-Hemodia Auto III reagent against sample without Hpt; Hpt 0.25 Unit (2.325 pmol/mL); with stool; remark: listed apart in the source
Human hemoglobin [13] = biological target: T1, Human hemoglobin; assay: Hb value by OC-Hemodia Auto III reagent against sample without Hpt; Hpt 0.25 Unit (1.55 pmol/mL); no stool; remark: listed apart in the source
Human hemoglobin [14] = biological target: T1, Human hemoglobin; assay: Hb value by OC-Hemodia Auto III reagent against sample without Hpt; Hpt 0.5 Unit (3.1 pmol/mL); no stool; remark: listed apart in the source
Human hemoglobin [15] = biological target: T1, Human hemoglobin; assay: Hb value by OC-Hemodia Auto III reagent against sample without Hpt; Hpt 1 Unit (6.2 pmol/mL); no stool; remark: listed apart in the source
Human hemoglobin [16] = biological target: T1, Human hemoglobin; assay: Hb value by OC-Hemodia Auto III reagent against sample without Hpt; Hpt 0.125 Unit (0.775 pmol/mL); no stool; remark: listed apart in the source

Ratio to no Hpt addition (%) (Human hemoglobin [1])	Ratio to no Hpt addition (%) (Human hemoglobin [2])	free-Hb concentration left (Human hemoglobin [3]) [µg/mL]	Ratio to no Hpt addition (%) (Human hemoglobin [4])	Ratio to no Hpt addition (%) (Human hemoglobin [5])	Ratio to no Hpt addition (%) (Human hemoglobin [6])	free-Hb concentration left (Human hemoglobin [7]) [µg/mL]	Ratio to no Hpt addition (%) (Human hemoglobin [8])	free-Hb concentration left (Human hemoglobin [9]) [µg/mL]	free-Hb concentration left (Human hemoglobin [10]) [µg/mL]	Ratio to no Hpt addition (%) (Human hemoglobin [11])	Ratio to no Hpt addition (%) (Human hemoglobin [12])	Ratio to no Hpt addition (%) (Human hemoglobin [13])	Ratio to no Hpt addition (%) (Human hemoglobin [14])	Ratio to no Hpt addition (%) (Human hemoglobin [15])	Ratio to no Hpt addition (%) (Human hemoglobin [16])	Binder
93	81	57	97	89	69	58.6	84	57.8	55.9	65						Porcine Hpt, without enzyme treatment (other, natural N-linked glycans on Asn 125, 151, 183, 232, Purified from porcine serum; also called purified porcine Hpt) AETGNEATDATDDSCPKPPEIPKGYVEHMVRYHCQTYYKLRTAGDGVYTLDSNKQWTNKVTGEKLPECEAVCGKPKNPVDQVQRIMGGSLDAKGSFPWQAKMISHHNLTSGATLINEQWLLTTAKNLRLGHKNDTKAKDIAPTLRLYVGKKQEVEIEKVIFHPDNSTVDIGLIKLKQKVPVNERVMPICLPSKDYVNVGLVGYVSGWGRNANLNFTEHLKYVMLPVADQEKCVQYYEGSTVPEKKTPKSPVGVQPILNEHTFCAGLSKYQEDTCYGDAGSAFAVHDKDDDTWYAAGILSFDKSCRTAEYGVYVRVTSILDWIQTTIADN
100	94		98	96	94		98			88						Porcine dHpt (ENGase) (other, N-linked glycans (Asn 125, 151, 183, 232) cut by Endo F2, which leaves one GlcNAc residue (with or without fucose), also called ENGase-treated porcine Hpt) AETGNEATDATDDSCPKPPEIPKGYVEHMVRYHCQTYYKLRTAGDGVYTLDSNKQWTNKVTGEKLPECEAVCGKPKNPVDQVQRIMGGSLDAKGSFPWQAKMISHHNLTSGATLINEQWLLTTAKNLRLGHKNDTKAKDIAPTLRLYVGKKQEVEIEKVIFHPDNSTVDIGLIKLKQKVPVNERVMPICLPSKDYVNVGLVGYVSGWGRNANLNFTEHLKYVMLPVADQEKCVQYYEGSTVPEKKTPKSPVGVQPILNEHTFCAGLSKYQEDTCYGDAGSAFAVHDKDDDTWYAAGILSFDKSCRTAEYGVYVRVTSILDWIQTTIADN
95	89		97	95	81		91			78						Porcine dHpt (PNGase) (other, N-linked glycans (Asn 125, 151, 183, 232) cut off by PNGase F, also called PNGase-treated porcine Hpt) AETGNEATDATDDSCPKPPEIPKGYVEHMVRYHCQTYYKLRTAGDGVYTLDSNKQWTNKVTGEKLPECEAVCGKPKNPVDQVQRIMGGSLDAKGSFPWQAKMISHHNLTSGATLINEQWLLTTAKNLRLGHKNDTKAKDIAPTLRLYVGKKQEVEIEKVIFHPDNSTVDIGLIKLKQKVPVNERVMPICLPSKDYVNVGLVGYVSGWGRNANLNFTEHLKYVMLPVADQEKCVQYYEGSTVPEKKTPKSPVGVQPILNEHTFCAGLSKYQEDTCYGDAGSAFAVHDKDDDTWYAAGILSFDKSCRTAEYGVYVRVTSILDWIQTTIADN

More lines, now with the values behind:

Binder	Ratio to no Hpt addition (%) (Human hemoglobin [1])	Ratio to no Hpt addition (%) (Human hemoglobin [2])	free-Hb concentration left (Human hemoglobin [3]) [µg/mL]	Ratio to no Hpt addition (%) (Human hemoglobin [4])	Ratio to no Hpt addition (%) (Human hemoglobin [5])	Ratio to no Hpt addition (%) (Human hemoglobin [6])	free-Hb concentration left (Human hemoglobin [7]) [µg/mL]	Ratio to no Hpt addition (%) (Human hemoglobin [8])	free-Hb concentration left (Human hemoglobin [9]) [µg/mL]	free-Hb concentration left (Human hemoglobin [10]) [µg/mL]	Ratio to no Hpt addition (%) (Human hemoglobin [11])	Ratio to no Hpt addition (%) (Human hemoglobin [12])	Ratio to no Hpt addition (%) (Human hemoglobin [13])	Ratio to no Hpt addition (%) (Human hemoglobin [14])	Ratio to no Hpt addition (%) (Human hemoglobin [15])	Ratio to no Hpt addition (%) (Human hemoglobin [16])
Equine dHpt (ENGase) (other, N-linked glycans (Asn 125, 148, 232, 265) cut by Endo F2, which leaves one GlcNAc residue (with or without fucose), also called ENGase-treated equine Hpt) VDTGNEATDFTDDSCPKPPEIPNGYVEHLVRYQCKNYYRLRSEGDGVYALNSEKQWVNKASGTKLPECEAVCGKPKNPVDQVQRIIGGLLDAKGSFPWQAKLVSRHNLTTGATLISEQWLLTTAQNLFLNHTPDAKPKDIAPTLKLYVGRKQPVEIEKVVFHPDYQEVDIGLIKLKEKVPVGERVMPICLPSKDYAQVGRVGYVSGWGRNANFNFTELLKYVTLPVADQDTCVKHYEGSTVPEKKTNRSSVGVQPILNEHTFCAGLSKFQEDTCYGDAGSAFVIHDEEDDTWYAAGILSFDKSCAVAEYGVYVKVPSILDWVQKTIAEN			34.7			96	51.8	101	45.3	15.6		100	101	106	93	101
Equine dHpt (PNGase) (other, N-linked glycans (Asn 125, 148, 232, 265) cut off by PNGase F, also called PNGase-treated equine Hpt) VDTGNEATDFTDDSCPKPPEIPNGYVEHLVRYQCKNYYRLRSEGDGVYALNSEKQWVNKASGTKLPECEAVCGKPKNPVDQVQRIIGGLLDAKGSFPWQAKLVSRHNLTTGATLISEQWLLTTAQNLFLNHTPDAKPKDIAPTLKLYVGRKQPVEIEKVVFHPDYQEVDIGLIKLKEKVPVGERVMPICLPSKDYAQVGRVGYVSGWGRNANFNFTELLKYVTLPVADQDTCVKHYEGSTVPEKKTNRSSVGVQPILNEHTFCAGLSKFQEDTCYGDAGSAFVIHDEEDDTWYAAGILSFDKSCAVAEYGVYVKVPSILDWVQKTIAEN						92		97				98	92	88	68	97
Equine Hpt, without enzyme treatment (other, natural N-linked glycans on Asn 125, 148, 232, 265, Purified from equine serum; also called purified equine Hpt) VDTGNEATDFTDDSCPKPPEIPNGYVEHLVRYQCKNYYRLRSEGDGVYALNSEKQWVNKASGTKLPECEAVCGKPKNPVDQVQRIIGGLLDAKGSFPWQAKLVSRHNLTTGATLISEQWLLTTAQNLFLNHTPDAKPKDIAPTLKLYVGRKQPVEIEKVVFHPDYQEVDIGLIKLKEKVPVGERVMPICLPSKDYAQVGRVGYVSGWGRNANFNFTELLKYVTLPVADQDTCVKHYEGSTVPEKKTNRSSVGVQPILNEHTFCAGLSKFQEDTCYGDAGSAFVIHDEEDDTWYAAGILSFDKSCAVAEYGVYVKVPSILDWVQKTIAEN			51			67	58.3	85	54.6	43.2		93	90	74	50	94
